From PubChem BioAssay AID720711 (National Center for Advancing Translational Sciences (NCATS), 2013)
This is a selection; strong and weak results do not stand in their true shares. The source made the active and inactive calls. Calls follow the shape of the dose curve; as a rule, active = well fitted activation curve with a large enough effect; inconclusive = small, poorly fitted or top-dose-only effect; inactive = no such curve, though single readings can be large or run the other way.

The chains behind the UniProt entries cited, without tags or fusion partners.
UniProt Q8WZA2, whole entry: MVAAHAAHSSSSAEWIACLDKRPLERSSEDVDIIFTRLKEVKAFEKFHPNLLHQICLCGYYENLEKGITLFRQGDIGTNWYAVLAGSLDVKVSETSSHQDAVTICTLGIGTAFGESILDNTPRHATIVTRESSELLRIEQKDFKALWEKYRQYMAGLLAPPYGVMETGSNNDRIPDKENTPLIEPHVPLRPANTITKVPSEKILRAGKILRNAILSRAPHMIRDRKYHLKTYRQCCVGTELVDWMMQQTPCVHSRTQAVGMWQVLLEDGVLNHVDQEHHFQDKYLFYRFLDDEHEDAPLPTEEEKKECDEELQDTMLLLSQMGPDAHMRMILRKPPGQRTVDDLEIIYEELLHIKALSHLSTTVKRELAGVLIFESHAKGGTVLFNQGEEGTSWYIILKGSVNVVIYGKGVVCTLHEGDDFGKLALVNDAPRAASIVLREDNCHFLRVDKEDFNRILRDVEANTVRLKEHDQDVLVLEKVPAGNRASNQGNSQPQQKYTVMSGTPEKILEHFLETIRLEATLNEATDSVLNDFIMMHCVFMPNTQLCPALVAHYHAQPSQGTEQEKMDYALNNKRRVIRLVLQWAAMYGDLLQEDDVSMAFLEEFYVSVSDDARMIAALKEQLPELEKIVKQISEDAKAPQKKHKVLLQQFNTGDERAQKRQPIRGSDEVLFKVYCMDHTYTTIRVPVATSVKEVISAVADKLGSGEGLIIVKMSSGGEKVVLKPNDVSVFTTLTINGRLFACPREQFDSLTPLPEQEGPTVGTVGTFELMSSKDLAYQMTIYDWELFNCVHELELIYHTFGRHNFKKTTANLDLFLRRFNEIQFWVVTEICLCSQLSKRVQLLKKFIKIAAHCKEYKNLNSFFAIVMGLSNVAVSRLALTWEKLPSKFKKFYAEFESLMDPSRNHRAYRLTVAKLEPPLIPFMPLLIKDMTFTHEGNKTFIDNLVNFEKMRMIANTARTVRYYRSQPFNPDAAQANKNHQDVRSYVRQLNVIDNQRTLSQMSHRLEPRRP

Biological target: Rap guanine nucleotide exchange factor 4 (Homo sapiens) (UniProt Q8WZA2)
Test: qHTS for Agonist of cAMP-regulated guanine nucleotide exchange factor 4 (EPAC2): primary screen; also: nearly all actives have a fitted effect of over 50% in size
Conditions: biochemical qHTS, 100% = 6.5 mM cAMP response; at 154 µM (top of the series) unless noted
Source text: In multi-cellular eukaryotic organisms, the effects of cAMP are transduced by two ubiquitously-expressed intracellular cAMP receptors, the classic protein kinase A/cAMP-dependent protein kinase (PKA/cAPK) and the more recently discovered exchange protein directly activated by cAMP/cAMP-regulated guanine nucleotide exchange factor (EPAC/cAMP-GEF). Both PKA and EPAC are ubiquitously expressed in all tissues, and an increase in intracellular cAMP levels will lead to the activation of both PKA and EPAC. Therefore, careful dissections of the individual role and relative contribution of EPAC and PKA within the overall cAMP signaling in various model systems are critical for further elucidating the mechanism of cAMP signaling. To date no EPAC-specific antagonists and agonist, as well as isoform-specific agonists have been reported, and developing EPAC-specific pharmacological probes to determine the physiological functions that EPAC play in the overall cAMP-mediated signaling remains a major challenge within the research field. Furthermore, identified regulators of EPAC may lead to new mechanism-based therapeutic strategies specifically targeting the EPAC / cAMP-signaling components as EPAC has been implicated to play important roles in major human pathological conditions such as diabetes, heart disease, and cancer.
This qHTS will be used to screen the Molecular Libraries Small Molecule Repository (MLSMR) as a concentration-titration series using the NCGC unique quantitative screening (qHTS) platform to find activators for EPAC2. In addition, this assay will also be used as a counterscreen for the EPAC1 qHTS. This fluorescent based assay is developed and validated for EPAC2 that measures exchange using EPAC effector Rap1 complex with BODIPY-GDP, a GDP analog with a tethered fluorophores. Activators are identified by monitoring the change in fluorescence signal as the exchanged free BODIPY-GDP has a reduced fluorescence compared to Rap1-bound BODIPY-GDP. […] in signal (activation) is the desired outcome for the EPAC2 agonist while no activity in this assay is desired for the EPAC1 agonist counterscreen.
[1] de Rooij, J., Zwartkruis, F. J., Verheijen, M. H., Cool, R. H., Nijman, S. M., Wittinghofer, A., and Bos, J.L. (1998) Nature 396, 474-477
[2] Kawasaki, H., Springett, G. M., Mochizuki, N., Toki, S., Nakaya, M., Matsuda, M., Housman, D. E., and Graybiel, A. M. (1998) Science 282, 2275-2279
NIH Chemical Genomics Center [NCGC]
NIH Molecular Libraries Probe Centers Network [MLPCN]
Assay Submitter (PI): Xiaodong Cheng, The University of Texas, Medical Branch
Briefly, three uL of reagents (100 nM EPAC2, 250 nM RAP1B-BODIPY-GDP, 50 uM GDP) were dispensed into a 1536-well Greiner black solid-bottom medium binding assay plate. Controls and test compounds (23 nL) were transferred to the plate via a Kalypsys pin tool equipped with a 1536-pin array. The plates were centrifuged at 1,000 rpm for 15 seconds followed by 5 minute incubation at room temperature. The assay plates were read at 5 minute intervals for 30 minutes in the ViewLux plate reader using 480nm excitation and 540nm emission filters. The results were normalized to the agonist positive control of 6.5 mM cAMP.

| SMILES | activation |
| --- | --- |
| COc1ccccc1OP(C)(=O)Nc1c(C)cccc1C (stereo not drawn) | inactive: 1.18% |
| COc1ccc(-c2ccccn2)cc1.O=[N+]([O-])c1cc([N+](=O)[O-])c(O)c([N+](=O)[O-])c1 | inactive: 2.07% |
| CCCOc1ccc(NP(C)(=O)Oc2ccc(Cl)cc2)cc1 (stereo not drawn) | inactive: 2.78% |
| CP(=O)(Nc1ccc(SC(F)(F)F)cc1)Oc1ccccc1 (stereo not drawn) | inactive: -9.26% |
| O=[N+]([O-])c1cc([N+](=O)[O-])c(-n2nnc3ccccc32)c([N+](=O)[O-])c1 | inactive: 3.49% |
| CN(Cc1cccnc1)C(=O)COc1ccc(Cl)c(Cl)c1.O=[N+]([O-])c1cc([N+](=O)[O-])c(O)c([N+](=O)[O-])c1 | inactive: 5.39% |
| O=[N+]([O-])c1cc([N+](=O)[O-])c(-c2cnn(-c3ccccc3)c2)c([N+](=O)[O-])c1 | inactive: 12.1% |
| Cc1nc2ccc3ccccc3c2s1.O=[N+]([O-])c1cc([N+](=O)[O-])c(O)c([N+](=O)[O-])c1 | inactive: -2.64% |
| Cc1cccc(C)c1OP(C)(=O)Nc1ccc(SC(F)(F)F)cc1 (stereo not drawn) | inactive: 9.67% |
| CP(=O)(Nc1ccc(SC(F)(F)F)cc1)Oc1ccc(Cl)cc1 (stereo not drawn) | inactive: 7.32% |
| CP(=O)(Oc1ccccc1)OC(c1ccccc1)C(F)(F)F (stereo not drawn) | inactive: -5.97% |
| CP(=O)(NC(=O)Nc1ccccc1)Oc1ccccc1 (stereo not drawn) | inactive: 7.58% |
| CCc1ccc(OP(C)(=O)N2CCN(c3ccc([N+](=O)[O-])cc3)CC2)cc1 (stereo not drawn) | inactive: 9.71% |
| Cc1cc(C)cc(OP(C)(=O)Nc2ccc(SC(F)(F)F)cc2)c1 (stereo not drawn) | inactive: -3.22% |
| CCOC(=O)c1ccc(NP(C)(=O)Oc2ccc(OC)cc2)cc1 (stereo not drawn) | inactive: -1.82% |
| O=[N+]([O-])c1cc([N+](=O)[O-])c(O)c([N+](=O)[O-])c1.c1ccc(Oc2ccncc2)cc1 | inactive: 14.8% |
| CCOP(C)(=S)SCC(=O)NC(C)C(=O)O (stereo not drawn) | inactive: -0.782% |

| SMILES | activation |
| --- | --- |
| CP(=O)(Nc1ccccn1)Oc1ccc(Cl)cc1 (stereo not drawn) | inactive: 6.89% |
| CP(=S)(Nn1cnnc1)Oc1ccccc1 (stereo not drawn) | inactive: 8.61% |
| CP(=O)(Nc1ccccc1Br)Oc1ccccc1 (stereo not drawn) | inactive: 11.2% |
| COc1ccccc1OP(C)(=O)Nc1ccccc1 (stereo not drawn) | inactive: -6.14% |
| O=[N+]([O-])c1cc([N+](=O)[O-])c(Nc2cccnc2)c([N+](=O)[O-])c1 | inactive: 3.28% |
| O=[N+]([O-])c1ccc2c(c1)C=Nc1ccccc1O2 | inactive: 8.71% |
| CC(C)(C)c1ccc(OP(C)(=O)Nc2ccc(SC(F)(F)F)cc2)cc1 (stereo not drawn) | inactive: -17% |
| Cc1cccc(C)c1OP(C)(N)=O (stereo not drawn) | inactive: -1.14% |
| COc1ccccc1OP(C)(=O)Nc1ccc(C)cc1 (stereo not drawn) | inactive: 10.7% |
| Cc1ccc(NP(C)(=O)Oc2ccccc2)c(C)c1 (stereo not drawn) | inactive: 1.85% |
| CCOC(=O)c1ccc(NP(C)(=O)Oc2ccccc2)cc1 (stereo not drawn) | inactive: 3.92% |
| Cc1cc(C)cc(OP(C)(N)=O)c1 (stereo not drawn) | inactive: 1.33% |
| COc1ccccc1OP(C)(=O)Nc1cc(Cl)ccc1C (stereo not drawn) | inactive: -0.849% |
| COc1ccc(OP(C)(=O)Nc2cccc(F)c2)cc1 (stereo not drawn) | inactive: -1.54% |
| CCN(CC)CCCOC(=O)C(O)(c1ccccc1)c1ccccc1 | inactive: 10.5% |
| COc1ccccc1-c1ccccn1.O=[N+]([O-])c1cc([N+](=O)[O-])c(O)c([N+](=O)[O-])c1 | inactive: 3.71% |
